pKi: −log10 of the molar value. Like-named read-outs stand apart in the source and are kept apart here.
Biological target: T1, mesotrypsin (Homo sapiens, UniProt P35030)
T1 construct: made in house; host or cells: E. coli
T1 sequence (P35030 81-304 limits assumed): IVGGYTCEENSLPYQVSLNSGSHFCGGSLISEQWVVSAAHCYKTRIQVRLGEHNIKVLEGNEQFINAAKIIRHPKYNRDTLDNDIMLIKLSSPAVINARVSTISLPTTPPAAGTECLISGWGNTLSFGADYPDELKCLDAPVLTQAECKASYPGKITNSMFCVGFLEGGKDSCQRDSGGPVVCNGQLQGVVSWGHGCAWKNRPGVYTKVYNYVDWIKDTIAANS
Assay: Competitive inhibition of mesotrypsin (cleavage of chromogenic substrate Z-GPR-pNA)
Assay type: biochemical
Conditions: for Ki: Ki (M)

Structure (SMILES)	Ki [M]	pKi
CC[C@H](C)[C@H](NC(=O)[C@H](C)NC(=O)[C@H](CO)NC(=O)CNC(=O)[C@@H]1CSSC[C@H](NC(=O)[C@@H](NC(=O)[C@@H](N)CCC(=O)O)C(C)C)C(=O)N[C@@H](CO)C(=O)N[C@@H](CCC(=O)O)C(=O)N[C@@H](CCC(N)=O)C(=O)N[C@@H](C)C(=O)N[C@@H](CCC(=O)O)C(=O)N[C@@H]([C@@H](C)O)C(=O)NCC(=O)N2CCC[C@H]2C(=O)N[C@H]2CSSC[C@@H]3NC(=O)CNC(=O)CNC(=O)[C@H](Cc4ccc(O)cc4)NC(=O)[C@H](Cc4ccccc4)NC(=O)[C@H](Cc4ccccc4)NC(=O)[C@@H]4CCCN4C(=O)[C@H](C)NC(=O)[C@H](CSSC[C@H](NC(=O)[C@H](Cc4ccc(O)cc4)NC(=O)[C@H](CCC(=O)O)NC(=O)[C@H](CCC(=O)O)NC(=O)[C@H]([C@@H](C)O)NC(=O)[C@H](CC(=O)O)NC(=O)CNC(=O)[C@H](CC(N)=O)NC(=O)[C@H](CC(N)=O)NC(=O)[C@H](CCCNC(=N)N)NC(=O)[C@H](CC(N)=O)NC(=O)CNC(=O)CNC3=O)C(=O)N[C@@H](CCSC)C(=O)N[C@@H](C)C(=O)N[C@@H](C(C)C)C(=O)N1)NC(=O)[C@H](CCCCN)NC(=O)CNC(=O)[C@H](CCC(=O)O)NC(=O)[C@H]([C@@H](C)O)NC(=O)[C@H](C(C)C)NC(=O)[C@H](CC(=O)O)NC(=O)[C@H](Cc1ccccc1)NC(=O)[C@H](Cc1ccc(O)cc1)NC(=O)[C@H](Cc1c[nH]c3ccccc13)NC(=O)[C@H](CCCNC(=N)N)NC(=O)[C@H](CO)NC(=O)[C@H]([C@@H](C)CC)NC(=O)[C@H](Cc1ccc(O)cc1)NC(=O)[C@H](C)NC(=O)[C@H](CCCNC(=N)N)NC2=O)C(=O)O [APPI-M17Y]	5.33e-08	–
CC[C@H](C)[C@H](NC(=O)[C@H](C)NC(=O)[C@H](CO)NC(=O)CNC(=O)[C@@H]1CSSC[C@H](NC(=O)[C@@H](NC(=O)[C@@H](N)CCC(=O)O)C(C)C)C(=O)N[C@@H](CO)C(=O)N[C@@H](CCC(=O)O)C(=O)N[C@@H](CCC(N)=O)C(=O)N[C@@H](C)C(=O)N[C@@H](CCC(=O)O)C(=O)N[C@@H]([C@@H](C)O)C(=O)NCC(=O)N2CCC[C@H]2C(=O)N[C@H]2CSSC[C@@H]3NC(=O)CNC(=O)CNC(=O)[C@H](Cc4ccc(O)cc4)NC(=O)[C@H](Cc4ccccc4)NC(=O)[C@H](Cc4ccccc4)NC(=O)[C@@H]4CCCN4C(=O)[C@H](C)NC(=O)[C@H](CSSC[C@H](NC(=O)[C@H](Cc4ccc(O)cc4)NC(=O)[C@H](CCC(=O)O)NC(=O)[C@H](CCC(=O)O)NC(=O)[C@H]([C@@H](C)O)NC(=O)[C@H](CC(=O)O)NC(=O)CNC(=O)[C@H](CC(N)=O)NC(=O)[C@H](CC(N)=O)NC(=O)[C@H](CCCNC(=N)N)NC(=O)[C@H](CC(N)=O)NC(=O)CNC(=O)CNC3=O)C(=O)N[C@@H](CCSC)C(=O)N[C@@H](C)C(=O)N[C@@H](C(C)C)C(=O)N1)NC(=O)[C@H](CCCCN)NC(=O)CNC(=O)[C@H](CCC(=O)O)NC(=O)[C@H]([C@@H](C)O)NC(=O)[C@H](C(C)C)NC(=O)[C@H](CC(=O)O)NC(=O)[C@H](Cc1ccccc1)NC(=O)[C@H](Cc1ccc(O)cc1)NC(=O)[C@H](Cc1c[nH]c3ccccc13)NC(=O)[C@H](CCCNC(=N)N)NC(=O)[C@H](CO)NC(=O)[C@H]([C@@H](C)CC)NC(=O)[C@H](CCCNC(=N)N)NC(=O)[C@H](C)NC(=O)[C@H](CCCCN)NC2=O)C(=O)O [APPI-R15K/M17R]	–	5.82
CC[C@H](C)[C@H](NC(=O)[C@H](C)NC(=O)[C@H](CO)NC(=O)CNC(=O)[C@@H]1CSSC[C@H](NC(=O)[C@@H](NC(=O)[C@@H](N)CCC(=O)O)C(C)C)C(=O)N[C@@H](CO)C(=O)N[C@@H](CCC(=O)O)C(=O)N[C@@H](CCC(N)=O)C(=O)N[C@@H](C)C(=O)N[C@@H](CCC(=O)O)C(=O)N[C@@H]([C@@H](C)O)C(=O)NCC(=O)N2CCC[C@H]2C(=O)N[C@H]2CSSC[C@@H]3NC(=O)CNC(=O)CNC(=O)[C@H](Cc4ccc(O)cc4)NC(=O)[C@H](Cc4ccccc4)NC(=O)[C@H](Cc4ccccc4)NC(=O)[C@@H]4CCCN4C(=O)[C@H](C)NC(=O)[C@H](CSSC[C@H](NC(=O)[C@H](Cc4ccc(O)cc4)NC(=O)[C@H](CCC(=O)O)NC(=O)[C@H](CCC(=O)O)NC(=O)[C@H]([C@@H](C)O)NC(=O)[C@H](CC(=O)O)NC(=O)CNC(=O)[C@H](CC(N)=O)NC(=O)[C@H](CC(N)=O)NC(=O)[C@H](CCCNC(=N)N)NC(=O)[C@H](CC(N)=O)NC(=O)CNC(=O)CNC3=O)C(=O)N[C@@H](CCSC)C(=O)N[C@@H](C)C(=O)N[C@@H](C(C)C)C(=O)N1)NC(=O)[C@H](CCCCN)NC(=O)CNC(=O)[C@H](CCC(=O)O)NC(=O)[C@H]([C@@H](C)O)NC(=O)[C@H](C(C)C)NC(=O)[C@H](CC(=O)O)NC(=O)[C@H](Cc1ccccc1)NC(=O)[C@H](Cc1ccc(O)cc1)NC(=O)[C@H](Cc1c[nH]c3ccccc13)NC(=O)[C@H](CCCNC(=N)N)NC(=O)[C@H](CO)NC(=O)[C@H]([C@@H](C)CC)NC(=O)[C@H](CCSC)NC(=O)[C@H](C)NC(=O)[C@H](CCCCN)NC2=O)C(=O)O [APPI-R15K]	3.5e-07	–
CC[C@H](C)[C@H](NC(=O)[C@H](C)NC(=O)[C@H](CO)NC(=O)CNC(=O)[C@@H]1CSSC[C@H](NC(=O)[C@@H](NC(=O)[C@@H](N)CCC(=O)O)C(C)C)C(=O)N[C@@H](CO)C(=O)N[C@@H](CCC(=O)O)C(=O)N[C@@H](CCC(N)=O)C(=O)N[C@@H](C)C(=O)N[C@@H](CCC(=O)O)C(=O)N[C@@H]([C@@H](C)O)C(=O)NCC(=O)N2CCC[C@H]2C(=O)N[C@H]2CSSC[C@@H]3NC(=O)CNC(=O)CNC(=O)[C@H](Cc4ccc(O)cc4)NC(=O)[C@H](Cc4ccccc4)NC(=O)[C@H](Cc4ccccc4)NC(=O)[C@@H]4CCCN4C(=O)[C@H](C)NC(=O)[C@H](CSSC[C@H](NC(=O)[C@H](Cc4ccc(O)cc4)NC(=O)[C@H](CCC(=O)O)NC(=O)[C@H](CCC(=O)O)NC(=O)[C@H]([C@@H](C)O)NC(=O)[C@H](CC(=O)O)NC(=O)CNC(=O)[C@H](CC(N)=O)NC(=O)[C@H](CC(N)=O)NC(=O)[C@H](CCCNC(=N)N)NC(=O)[C@H](CC(N)=O)NC(=O)CNC(=O)CNC3=O)C(=O)N[C@@H](CCSC)C(=O)N[C@@H](C)C(=O)N[C@@H](C(C)C)C(=O)N1)NC(=O)[C@H](CCCCN)NC(=O)CNC(=O)[C@H](CCC(=O)O)NC(=O)[C@H]([C@@H](C)O)NC(=O)[C@H](C(C)C)NC(=O)[C@H](CC(=O)O)NC(=O)[C@H](Cc1ccccc1)NC(=O)[C@H](Cc1ccc(O)cc1)NC(=O)[C@H](Cc1c[nH]c3ccccc13)NC(=O)[C@H](CCCNC(=N)N)NC(=O)[C@H](CO)NC(=O)[C@H]([C@@H](C)CC)NC(=O)[C@H](CCSC)NC(=O)[C@H](C)NC(=O)[C@H](CCCNC(=N)N)NC2=O)C(=O)O [APPI-wt, Alzheimer's amyloid-protein precursor inhibitor, reference compound]	1.36e-07	–

Source: US20120094923A1, “METHODS AND MATERIALS FOR ASSESSING PROSTATE CANCER RECURRENCE AND REDUCING MESOTRYPSIN ACTIVITY” (priority 2010, published 2012)
